Measured values reported in patent US9371497B2, “THPE ethers” (Dow Global Technologies LLC, priority 2012, dated 2016).

Details: 0.1 grams THPE alkyl ether with 0.9 grams solvent; warmed to 60° C., cooled, freezer at −10° C., checked daily for crystallization; letters name the solvent mixtures

| Substance | Solubility @ −10° C./7 Days |
| --- | --- |
| 4,4′,4″-(Ethane-1,1,1-triyl)tris(butoxy)benzene [n-C4H9] | A, B, C, D |
| 4,4′,4″-(Ethane-1,1,1-triyl)tris(hexyloxy)benzene [n-C6H13] | A, B, C, D |
| 4,4′,4″-(Ethane-1,1,1-triyl)tris(pentyloxy)benzene [n-C5H11] | A, B, C, D |
